According to paper PMC7826266:

Molecular target: human insulin receptor overexpressed in Rat-1 cells (human) (UniProt P06213)
Test: flow cytometry on cells

FITC-labeled insulin (ligand)
shift of peak fluorescent intensity (100 nM FITC-insulin alone): 16.7%
shift of peak fluorescent intensity (100 nM FITC-insulin with 10 nM IR-A43): 20.5%
shift of peak fluorescent intensity (100 nM FITC-insulin with 50 nM IR-A43): 38.3%
shift of peak fluorescent intensity (100 nM FITC-insulin with 250 nM IR-A43): 66.6%
